{
  "source": "IntAct's records for PubMed 35512704",
  "parents": {"B1": {"name": "RAC-alpha serine/threonine-protein kinase (Homo sapiens), P31749 (parent)", "chain": "MSDVAIVKEGWLHKRGEYIKTWRPRYFLLKNDGTFIGYKERPQDVDQREAPLNNFSVAQCQLMKTERPRPNTFIIRCLQWTTVIERTFHVETPEEREEWTTAIQTVADGLKKQEEEEMDFRSGSPSDNSGAEEMEVSLAKPKHRVTMNEFEYLKLLGKGTFGKVILVKEKATGRYYAMKILKKEVIVAKDEVAHTLTENRVLQNSRHPFLTALKYSFQTHDRLCFVMEYANGGELFFHLSRERVFSEDRARFYGAEIVSALDYLHSEKNVVYRDLKLENLMLDKDGHIKITDFGLCKEGIKDGATMKTFCGTPEYLAPEVLEDNDYGRAVDWWGLGVVMYEMMCGRLPFYNQDHEKLFELILMEEIRFPRTLGPEAKSLLSGLLKKDPKQRLGGGSEDAKEIMQHRFFAGIVWQHVYEKKLSPPFKPQVTSETDTRYFDEEFTAQMITITPPDQDDSMECVDSERRPHFPQFSYSASGTA"}},
  "data": [
    {"variants_of": "B1", "conditions": "with atm_human ATM", "values": [
      {"variant": "E17K", "effect of a mutation on the interaction": "causing an interaction"}
    ]},
    {"variants_of": "B1", "conditions": "with ajuba_human AJUBA", "values": [
      {"variant": "E17K", "effect of a mutation on the interaction": "with no effect"}
    ]},
    {"variants_of": "B1", "conditions": "with alk_human ALK", "values": [
      {"variant": "E17K", "effect of a mutation on the interaction": "with no effect"}
    ]},
    {"variants_of": "B1", "conditions": "with aph1a_human APH1A", "values": [
      {"variant": "E17K", "effect of a mutation on the interaction": "with no effect"}
    ]},
    {"variants_of": "B1", "conditions": "with asxl1_human ASXL1, Q8IXJ9", "values": [
      {"variant": "E17K", "effect of a mutation on the interaction": "with no effect"}
    ]},
    {"variants_of": "B1", "conditions": "with bakor_human ATG14", "values": [
      {"variant": "E17K", "effect of a mutation on the interaction": "with no effect"}
    ]},
    {"variants_of": "B1", "conditions": "with atpb_human ATP5F1B", "values": [
      {"variant": "E17K", "effect of a mutation on the interaction": "with no effect"}
    ]},
    {"variants_of": "B1", "conditions": "with ufo_human AXL", "values": [
      {"variant": "E17K", "effect of a mutation on the interaction": "with no effect"}
    ]},
    {"variants_of": "B1", "conditions": "with za2g_human AZGP1, P25311", "values": [
      {"variant": "E17K", "effect of a mutation on the interaction": "with no effect"}
    ]},
    {"variants_of": "B1", "conditions": "with b2mg_human B2M", "values": [
      {"variant": "E17K", "effect of a mutation on the interaction": "with no effect"}
    ]},
    {"variants_of": "B1", "conditions": "with bap1_human BAP1, Q92560", "values": [
      {"variant": "E17K", "effect of a mutation on the interaction": "with no effect"}
    ]},
    {"variants_of": "B1", "conditions": "with b2cl1_human BCL2L1, Q07817", "values": [
      {"variant": "E17K", "effect of a mutation on the interaction": "with no effect"}
    ]},
    {"variants_of": "B1", "conditions": "with birc2_human BIRC2", "values": [
      {"variant": "E17K", "effect of a mutation on the interaction": "with no effect"}
    ]},
    {"variants_of": "B1", "conditions": "with braf_human BRAF", "values": [
      {"variant": "E17K", "effect of a mutation on the interaction": "with no effect"}
    ]},
    {"variants_of": "B1", "conditions": "with baba2_human BABAM2", "values": [
      {"variant": "E17K", "effect of a mutation on the interaction": "with no effect"}
    ]},
    {"variants_of": "B1", "conditions": "with pebb_human CBFB", "values": [
      {"variant": "E17K", "effect of a mutation on the interaction": "with no effect"}
    ]},
    {"variants_of": "B1", "conditions": "with ccnd1_human CCND1", "values": [
      {"variant": "E17K", "effect of a mutation on the interaction": "with no effect"}
    ]},
    {"variants_of": "B1", "conditions": "with ccnd2_human CCND2, P30279", "values": [
      {"variant": "E17K", "effect of a mutation on the interaction": "with no effect"}
    ]},
    {"variants_of": "B1", "conditions": "with ccne1_human CCNE1", "values": [
      {"variant": "E17K", "effect of a mutation on the interaction": "with no effect"}
    ]},
    {"variants_of": "B1", "conditions": "with cd44_human CD44, P16070", "values": [
      {"variant": "E17K", "effect of a mutation on the interaction": "with no effect"}
    ]},
    {"variants_of": "B1", "conditions": "with cd79a_human CD79A", "values": [
      {"variant": "E17K", "effect of a mutation on the interaction": "with no effect"}
    ]},
    {"variants_of": "B1", "conditions": "with cd79b_human CD79B", "values": [
      {"variant": "E17K", "effect of a mutation on the interaction": "with no effect"}
    ]},
    {"variants_of": "B1", "conditions": "with cdc27_human CDC27", "values": [
      {"variant": "E17K", "effect of a mutation on the interaction": "with no effect"}
    ]},
    {"variants_of": "B1", "conditions": "with cdc42_human CDC42, P60953", "values": [
      {"variant": "E17K", "effect of a mutation on the interaction": "with no effect"}
    ]},
    {"variants_of": "B1", "conditions": "with cdc73_human CDC73", "values": [
      {"variant": "E17K", "effect of a mutation on the interaction": "with no effect"}
    ]},
    {"variants_of": "B1", "conditions": "with cdk4_human CDK4, P11802", "values": [
      {"variant": "E17K", "effect of a mutation on the interaction": "with no effect"}
    ]},
    {"variants_of": "B1", "conditions": "with cdn1a_human CDKN1A", "values": [
      {"variant": "E17K", "effect of a mutation on the interaction": "with no effect"}
    ]},
    {"variants_of": "B1", "conditions": "with cdn1b_human CDKN1B", "values": [
      {"variant": "E17K", "effect of a mutation on the interaction": "with no effect"}
    ]},
    {"variants_of": "B1", "conditions": "with cebpa_human CEBPA", "values": [
      {"variant": "E17K", "effect of a mutation on the interaction": "with no effect"}
    ]},
    {"variants_of": "B1", "conditions": "with chk2_human CHEK2", "values": [
      {"variant": "E17K", "effect of a mutation on the interaction": "with no effect"}
    ]},
    {"variants_of": "B1", "conditions": "with csf1r_human CSF1R", "values": [
      {"variant": "E17K", "effect of a mutation on the interaction": "with no effect"}
    ]},
    {"variants_of": "B1", "conditions": "with ctla4_human CTLA4, P16410", "values": [
      {"variant": "E17K", "effect of a mutation on the interaction": "with no effect"}
    ]},
    {"variants_of": "B1", "conditions": "with cul3_human CUL3, Q13618", "values": [
      {"variant": "E17K", "effect of a mutation on the interaction": "with no effect"}
    ]},
    {"variants_of": "B1", "conditions": "with cul4b_human CUL4B", "values": [
      {"variant": "E17K", "effect of a mutation on the interaction": "with no effect"}
    ]},
    {"variants_of": "B1", "conditions": "with daxx_human DAXX", "values": [
      {"variant": "E17K", "effect of a mutation on the interaction": "with no effect"}
    ]},
    {"variants_of": "B1", "conditions": "with ddx5_human DDX5, P17844", "values": [
      {"variant": "E17K", "effect of a mutation on the interaction": "with no effect"}
    ]},
    {"variants_of": "B1", "conditions": "with dicer_human DICER1, Q9UPY3", "values": [
      {"variant": "E17K", "effect of a mutation on the interaction": "with no effect"}
    ]},
    {"variants_of": "B1", "conditions": "with dnm3a_human DNMT3A", "values": [
      {"variant": "E17K", "effect of a mutation on the interaction": "with no effect"}
    ]},
    {"variants_of": "B1", "conditions": "with e2f1_human E2F1, Q01094", "values": [
      {"variant": "E17K", "effect of a mutation on the interaction": "with no effect"}
    ]},
    {"variants_of": "B1", "conditions": "with e2f3_human E2F3, O00716", "values": [
      {"variant": "E17K", "effect of a mutation on the interaction": "with no effect"}
    ]},
    {"variants_of": "B1", "conditions": "with e2f4_human E2F4, Q16254", "values": [
      {"variant": "E17K", "effect of a mutation on the interaction": "with no effect"}
    ]},
    {"variants_of": "B1", "conditions": "with e2f6_human E2F6, O75461", "values": [
      {"variant": "E17K", "effect of a mutation on the interaction": "with no effect"}
    ]},
    {"variants_of": "B1", "conditions": "with e2f8_human E2F8, A0AVK6", "values": [
      {"variant": "E17K", "effect of a mutation on the interaction": "with no effect"}
    ]},
    {"variants_of": "B1", "conditions": "with if4e_human EIF4E", "values": [
      {"variant": "E17K", "effect of a mutation on the interaction": "with no effect"}
    ]},
    {"variants_of": "B1", "conditions": "with if5a2_human EIF5A2, Q9GZV4", "values": [
      {"variant": "E17K", "effect of a mutation on the interaction": "with no effect"}
    ]},
    {"variants_of": "B1", "conditions": "with ephb1_human EPHB1, P54762", "values": [
      {"variant": "E17K", "effect of a mutation on the interaction": "with no effect"}
    ]},
    {"variants_of": "B1", "conditions": "with erbb3_human ERBB3, P21860", "values": [
      {"variant": "E17K", "effect of a mutation on the interaction": "with no effect"}
    ]},
    {"variants_of": "B1", "conditions": "with tnr6_human FAS", "values": [
      {"variant": "E17K", "effect of a mutation on the interaction": "with no effect"}
    ]},
    {"variants_of": "B1", "conditions": "with fgfr1_human FGFR1, P11362", "values": [
      {"variant": "E17K", "effect of a mutation on the interaction": "with no effect"}
    ]},
    {"variants_of": "B1", "conditions": "with fgfr4_human FGFR4, P22455", "values": [
      {"variant": "E17K", "effect of a mutation on the interaction": "with no effect"}
    ]},
    {"variants_of": "B1", "conditions": "with fumh_human FH", "values": [
      {"variant": "E17K", "effect of a mutation on the interaction": "with no effect"}
    ]},
    {"variants_of": "B1", "conditions": "with gbra1_human GABRA1, P14867", "values": [
      {"variant": "E17K", "effect of a mutation on the interaction": "with no effect"}
    ]},
    {"variants_of": "B1", "conditions": "with gbra6_human GABRA6, Q16445", "values": [
      {"variant": "E17K", "effect of a mutation on the interaction": "with no effect"}
    ]},
    {"variants_of": "B1", "conditions": "with gnaq_human GNAQ", "values": [
      {"variant": "E17K", "effect of a mutation on the interaction": "with no effect"}
    ]},
    {"variants_of": "B1", "conditions": "with grm1_human GRM1, Q13255", "values": [
      {"variant": "E17K", "effect of a mutation on the interaction": "with no effect"}
    ]},
    {"variants_of": "B1", "conditions": "with grm3_human GRM3, Q14832", "values": [
      {"variant": "E17K", "effect of a mutation on the interaction": "with no effect"}
    ]},
    {"variants_of": "B1", "conditions": "with gsk3a_human GSK3A", "values": [
      {"variant": "E17K", "effect of a mutation on the interaction": "with no effect"}
    ]},
    {"variants_of": "B1", "conditions": "with gsk3b_human GSK3B", "values": [
      {"variant": "E17K", "effect of a mutation on the interaction": "with no effect"}
    ]},
    {"variants_of": "B1", "conditions": "with gtpb4_human GTPBP4", "values": [
      {"variant": "E17K", "effect of a mutation on the interaction": "with no effect"}
    ]},
    {"variants_of": "B1", "conditions": "with hgf_human HGF", "values": [
      {"variant": "E17K", "effect of a mutation on the interaction": "with no effect"}
    ]}
  ]
}
